Results on one substance are retold here after patent US10653796B2, “Liposomes containing cell penetrating peptides and tetraetherlipids for the oral delivery of macromolecules” (Universität Heidelberg, priority 2015, dated 2020).

The subject of one data set is A431. Put plainly: Tumor accumulation of radiolabeled Cetuximab after oral application. Particulars: oral liposomes containing 1 mol-% cyclic CPP-conjugate vs free, A431 tumor bearing mice. The data set is classed as in vivo, Balb/c mice. How it is done:
In order to determine the tumor enrichment of Cetuximab incorporated into the liposomes containing 1 mol-% of the cyclic CPP-conjugate, respective liposomes were administered into tumor bearing mice. To obtain these mice, the cell line A431 was injected into Balb/c mice (overexpression of EGFR). The antibody Cetuximab was radiolabeled, incorporated into the liposomes and afterwards applicated orally into the mice.
The animal study was performed according to local authorities using male Wistar rats with a body weight of about 200-250 g. For the determination of the tumor enrichment of Cetuximab, the antibody was radiolabeled with ^131I and incorporated into the liposomal formulation containing 1 mol-% of the cyclic CPP-phospholipid-conjugate and compared with Cetuximab free/i.v. as described previously. At several time points, the tumor enrichment was measured by direct counting of the radiolabeled sample. Briefly, groups (n≥3) of male Wistar rats were formed. Prior to 12 h of the experiment, the rats were kept without food, but with free access to water. […] The blood was removed, weighed and the radioactivity was measured using a Berthold LB 951 G counter in comparison with standards. The blood-associated activity was related to the total injected dose (ID) and expressed as a percentage of the total injected dose per gram of tissue (% ID/g tumor).

Data set [1] in a line: Radioactivity at determined time points after oral application of radiolabeled substances. As to conditions: radiolabeled substance. The data set is classed as in vivo.

For “Cetuximab: antibody incorporated into the liposomes; tested in EGFR-overexpressing A431 tumor mice”, the tumor accumulation entry in the data set with A431 was “significant increase”. Moreover, the “mucosal uptake by the liposomal formulations” value in data set [1] is recorded as “strongly enhanced mucosal uptake”.
